The test system of this experiment is VEGF. Kind of experiment: VEGF ELISA Assay in HEK293 cells. It is filed as cell-based. The settings on record: Homo sapiens, head prints IC50, method calculates EC50 from % of DFO stimulation. On the procedure: HEK293 cells are seeded in 96-well poly-lysine coated plates at 20,000 cells per well in DMEM (10% FBS, 1% NEAA, 0.1% glutamine). Following overnight incubation, the cells are washed with 100 μL of Opti-MEM (Gibco, Carlsbad, Calif.) to remove serum. Compound in DMSO is serially diluted (beginning with 100 μM) in Opti-MEM and added to the cells. The conditioned media is analyzed for VEGF with a Quantikine human VEGF immunoassay kit (R&D Systems, Minneapolis, Minn.). Optical density measurements at 450 nm are recorded using the Spectra Max 250 (Molecular Devices, Sunnyvale, Calif.). Data defined as % of DFO stimulation is used to calculate EC50 values with GraphPad Prism 4 software (San Diego, Calif.).

The source of these data is patent US10562854B2, “Prolyl hydroxylase inhibitors” (Aerpio Therapeutics, Inc., priority 2009, dated 2020).

Take `CC(NCc1ccn(Cc2ccccc2)c(=O)c1O)c1ccccc1` (centres unmarked) [Compound C14, 1-benzyl-3-hydroxy-4-[(1-phenylethylamino)methyl]pyridin-2(1H)-one]: the IC50 (usually the concentration needed to halve the response being measured) was 20.6 µM.
The value for `O=c1c(O)c(CNCCCn2ccnc2)ccn1Cc1ccccc1` [Compound C35, 1-benzyl-3-hydroxy-4-{[3-(1H-imidazol-1-yl)propylamino]methyl}pyridin-2(1H)-one] was 42.5 µM.
